From ChEMBL document CHEMBL1123703, “Hydroxamic acid inhibitors of 5-lipoxygenase” (J Med Chem, 1987)

Molecular target: T1, Polyunsaturated fatty acid 5-lipoxygenase (Rattus norvegicus, UniProt P12527)
T1 sequence (P12527 whole entry): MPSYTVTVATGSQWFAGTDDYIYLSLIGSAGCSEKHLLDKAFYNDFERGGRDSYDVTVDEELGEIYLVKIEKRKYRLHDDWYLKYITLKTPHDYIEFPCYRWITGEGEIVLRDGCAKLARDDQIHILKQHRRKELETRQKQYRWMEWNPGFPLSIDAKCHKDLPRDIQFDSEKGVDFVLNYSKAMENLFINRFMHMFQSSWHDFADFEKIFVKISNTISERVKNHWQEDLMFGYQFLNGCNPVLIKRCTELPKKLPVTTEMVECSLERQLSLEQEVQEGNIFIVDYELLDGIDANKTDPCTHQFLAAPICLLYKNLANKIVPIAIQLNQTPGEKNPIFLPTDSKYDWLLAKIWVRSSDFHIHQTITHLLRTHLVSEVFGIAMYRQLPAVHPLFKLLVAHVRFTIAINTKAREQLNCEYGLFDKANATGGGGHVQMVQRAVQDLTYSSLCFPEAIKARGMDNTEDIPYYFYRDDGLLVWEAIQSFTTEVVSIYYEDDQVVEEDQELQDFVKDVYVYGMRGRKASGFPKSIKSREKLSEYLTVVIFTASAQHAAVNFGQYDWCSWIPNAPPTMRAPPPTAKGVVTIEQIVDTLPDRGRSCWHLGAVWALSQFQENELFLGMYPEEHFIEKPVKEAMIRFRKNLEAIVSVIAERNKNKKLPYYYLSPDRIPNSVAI
Assay: In vitro inhibitory activity against RBL-1 5-LO
Assay type: cell-based

Structure (SMILES)	IC50 [µM]
CN(O)C(=O)/C(=C/c1ccc2ccccc2c1)c1ccccc1	0.5
O=C(/C=C/c1ccc2ccccc2c1)NO	0.95
